Assays:
[1] = test system: cartilage disks of juvenile rabbits, IL-1 stimulated GAG release; assay: Cartilage culture test (IL-1 induced GAG release); settings: rabbit cartilage disks, IL-1 (4 ng/ml) plus test compound, released GAG after 4 days
Procedure: Cartilage disks (2 mm in diameter) were prepared from the cartilage of juvenile rabbits (3 weeks). Cartilage disks were transferred and cultured individually in the wells of a 48-well tissue culture plate containing DMEM/10% FCS for over 3 days at 37° C. In the night before the test, the medium of DMEM was changed to that not containing FCS. Next morning, IL-1 (4 ng/ml) and a test compound were added to the plate. It is provided that some wells of a plate contain only IL-1 (not containing test compound) and that some wells are vehicle (not containing IL-1 and test compound). After 4 days from the IL-1 addition, the amount of released glycosaminoglycan (GAG) was measured after collecting culture supernatant and cartilage disks.
Quantitation of GAG release was as follows; the weight of the cartilage disk was measured, then 200 μl of a papain digestion buffer solution (1 mM EDTA, 2 mM DTT, 20 mM Tris, (pH 7.0), Papain (300 μg/ml)) was added to each well and the plate containing the digestive solution was incubated for 2 h at 65° C. 50 μl of 100 mM Iodoacetatic acid (pH 7.0) was added for stopping the digestion. The extracts of cartilage are centrifuged at 12000 rpm for 5 min. 20 μl of centrifuged supernatant or culture supernatant was transferred in the wells of a 96-well assay plate. The amount of released GAG in the transferred solution was quantitated by using a proteoglycan & glycosaminoglycan assay kit (Blyscan, Funakoshi Co., Ltd, Tokyo, Japan).

MMP-13 = MMP-13 (Homo sapiens, UniProt P45452); assay: Assay for inhibitory activities on MMP-13; settings: read-out: MMP-13 (IC50μM); catalytic domain, substrate MOCAc-Pro-Leu-Gly-Leu-A2Pr(DNP)-Ala-Arg-NH2

`O=C(O)[C@@H](Cc1ccccc1)NS(=O)(=O)c1ccc(-c2ccon2)s1` was tested. Which GAG [1] did it give?
Its GAG is 47.6.

What about the IC50 (MMP-13) of the same compound?
Its IC50 is 1.1 µM.

With `O=C(O)[C@@H](Cc1c[nH]c2ccccc12)NS(=O)(=O)c1ccc(-c2cc3ccccc3s2)s1` as the compound, how does the GAG [1] read?
The GAG was 31.0.

What about the IC50 (MMP-13) of the same compound?
Its IC50 is 0.0319 µM.

What does the source list for `O=C(O)[C@@H](Cc1ccccc1)NS(=O)(=O)c1ccc(-c2cc3ccccc3s2)s1`?
GAG [1]: 16.2; IC50 (MMP-13): 0.00771 µM

`O=C(O)[C@H](Cc1ccccc1)NS(=O)(=O)c1ccc(-c2cc3ccccc3o2)s1` was tested. Which GAG [1] did it give?
Its GAG is 47.7.

And the IC50 (MMP-13)?
The IC50 was 0.498 µM.

Source: patent publication US20050227994A1, “Decomposition inhibitor for extracellular matrix of cartilage” (Shionogi & Co., Ltd., priority 2002, published 2005)
